Legend:
[1] = target: Recombinant Human NF-Kappab-Inducing Kinase (NIK/MAP3K14) (Homo sapiens, UniProt Q99558); test: Inhibition of auto-phosphorylation of recombinant human NIK/MAP3K14 (AlphaScreen); format: biochemical; conditions: read-out: Assay 1 IC50, 5 microM ATP, 1 nM enzyme, 2 h at 25° C., average of values
Protocol: Biological Assay 1: Inhibition of Auto-Phosphorylation of Recombinant Human NF-Kappab-Inducing Kinase (NIK/MAP3K14) Activity (AlphaScreen®)
NIK/MAP3K14 auto-phosphorylation activity was measured using the AlphaScreen® ((αscreen) format (Perkin ElmeR). All compounds tested were dissolved in dimethyl sulfoxide (DMSO) and further dilutions were made in assay buffer. Final DMSO concentration was 0.7% (v/v) in assays. Assay buffer was 50 mM Tris pH 7.5 containing 1 mM EGTA (ethylene glycol tetraacetic acid), 1 mM DTT (dithiothreitol), 0.1 mM Na3VO4, 5 mM MgCl2, 0.01% Tween® 20. Assays were carried out in 384 well Proxiplates (Perkin ElmeR). Incubations consisted of compound, 5 microM Adenosine-5′-triphosphate (ATP), and 1 nM NIK/MAP3K14. Incubations were initiated by addition of GST-tagged NIK/MAP3K14 enzyme, carried out for 2 h at 25° C. and terminated by addition of stop buffer containing anti-phospho-IKK Ser176/180 antibody. Protein A Acceptor and Glutathione-donor beads were added before reading using an EnVision® Multilabel Plate Reader (Perkin ElmeR). Signal obtained in the wells was normalized using high (full enzyme activity, 0.7% DMSO) and low controls (no enzyme activity, 0.7% DMSO, no ATP). IC50's were determined by fitting a sigmoidal curve to % inhibition of control versus Log10 compound concentration.

Sequences of proteins named here, by UniProt entry; tags and fusion partners are left off.
UniProt Q99558, whole entry: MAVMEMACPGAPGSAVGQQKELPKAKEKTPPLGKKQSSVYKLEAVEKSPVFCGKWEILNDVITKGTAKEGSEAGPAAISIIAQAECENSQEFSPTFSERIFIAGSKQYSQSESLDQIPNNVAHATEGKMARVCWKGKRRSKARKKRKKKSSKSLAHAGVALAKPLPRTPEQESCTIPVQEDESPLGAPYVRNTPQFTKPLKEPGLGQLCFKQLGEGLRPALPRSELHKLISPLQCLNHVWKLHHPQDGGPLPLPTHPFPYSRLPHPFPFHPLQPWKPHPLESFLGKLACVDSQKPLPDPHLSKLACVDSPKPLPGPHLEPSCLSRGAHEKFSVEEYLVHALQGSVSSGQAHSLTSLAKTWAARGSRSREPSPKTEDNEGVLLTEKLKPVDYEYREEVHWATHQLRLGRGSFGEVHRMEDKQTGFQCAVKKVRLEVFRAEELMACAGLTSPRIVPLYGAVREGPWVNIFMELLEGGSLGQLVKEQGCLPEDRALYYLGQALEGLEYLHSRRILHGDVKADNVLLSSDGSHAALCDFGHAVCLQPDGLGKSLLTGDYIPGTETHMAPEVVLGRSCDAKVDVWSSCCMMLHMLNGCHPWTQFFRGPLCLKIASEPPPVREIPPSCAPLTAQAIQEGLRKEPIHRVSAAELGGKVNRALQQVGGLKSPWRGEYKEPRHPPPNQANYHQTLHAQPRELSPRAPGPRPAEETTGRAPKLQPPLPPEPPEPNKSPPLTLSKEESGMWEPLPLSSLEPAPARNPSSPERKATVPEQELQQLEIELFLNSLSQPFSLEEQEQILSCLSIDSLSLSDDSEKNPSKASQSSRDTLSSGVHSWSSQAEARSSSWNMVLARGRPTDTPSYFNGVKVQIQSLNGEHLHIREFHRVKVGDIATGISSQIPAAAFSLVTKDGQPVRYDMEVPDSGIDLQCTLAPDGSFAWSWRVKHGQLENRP

[2] = test system: p-IKKα levels in L363 (NIK translocated multiple myeloma) cells; test: Effect of compounds on p-IKKα levels in L363 cells (AlphaLISA SureFire Ultra); format: cell-based, human; conditions: read-out: Assay 2 IC50, BAFF stimulated, MG132, 6 h, average of values
Protocol: Biological Assay 2: Effect of Compounds on p-IKKα Levels in L363 (NIK Translocated Multiple Myeloma) Cells
All compounds tested were dissolved and serially diluted in DMSO, 1:3 dilution for 11 points in an Echo compatible plate. 100% DMSO is added to columns 12 and 24 of the plate to serve as high and low signal controls. This compound plate was used to spot 20 nl of compound or DMSO into a Greiner 384 well TC plate (781080). Final DMSO concentration was […] (v/v) in cell assays. Human L363 cells (ATCC) were cultured in RPMI 1640 medium supplemented with GlutaMax, non-essential amino acids, sodium pyruvate and 10% fetal bovine serum. Cells were routinely maintained at densities of 0.2×10^6 cells per ml −2×10^6 cells per ml at 37° C. in a humidified 5% CO2 atmosphere incubator. […] At the end of this incubation, lysed cells were sequentially treated and incubated with acceptor and donor bead mixes according to the manufacturer's protocol for a 1 plate/2-incubation suspension cell assay (AlphaLISA SureFire Ultra p-IKKα (Ser 176/180) Assay Kit (Perkin ElmeR). Plates were read using an EnVision® Multilabel Plate Reader (Perkin ElmeR). Within an experiment, a concentration response curve for each compound was run in duplicate. Signal obtained in the test wells was normalized using high signal (BAFF stimulated cells, DMSO, MG132) and low signal (unstimulated cells, DMSO) controls. […]

SMILES: CN1CC[C@@](O)(c2cc(-c3cccc(-c4ccc5c(n4)c(N)nn5C)c3)on2)C1=O
- IC50 [1]: 100 to 500 nM
- IC50 [2]: > 501 nM
